{"source": "patent US12344584B2", "about": "“KCNQ potentiators” (Eli Lilly and Company, priority 2019, dated 2025)", "origin": "cited, not measured here", "tested_on": "ALS", "conditions": "ALS patients; cited from earlier work", "data": [{"smiles": "Nc1nc2ccc(OC(F)(F)F)cc2s1", "note": "[riluzole]", "values": [{"measurement": "increase in survival", "value": "2-3 months"}]}]}
